In one test the test system is HCC2429 lung xenografts. Kind of test: HCC2429 lung xenograft model (ADCs). In kind it is in vivo, mouse. The method, then: Similar in vivo experiments were performed with the HCC2429 lung cancer cell line as described above. To generate xenografts, nude (Nu/Nu) female mice were implanted subcutaneously with 3.5×10^6 HCC2429 cells in 50% Matrigel (BD Biosciences).
The HCC2429 lung model was also dosed intravenously Q4d×4 with PBS vehicle, rat-human chimeric anti-Notch3 ADCs and control huNeg-8.8 ADCs, at a dose of 5 mg/kg as provided in FIG. 16A.

Protein sequences, listed by entry. Tags and fused reporters are not part of them. Residues count along the entry.
UniProt Q9UM47, 40-2321: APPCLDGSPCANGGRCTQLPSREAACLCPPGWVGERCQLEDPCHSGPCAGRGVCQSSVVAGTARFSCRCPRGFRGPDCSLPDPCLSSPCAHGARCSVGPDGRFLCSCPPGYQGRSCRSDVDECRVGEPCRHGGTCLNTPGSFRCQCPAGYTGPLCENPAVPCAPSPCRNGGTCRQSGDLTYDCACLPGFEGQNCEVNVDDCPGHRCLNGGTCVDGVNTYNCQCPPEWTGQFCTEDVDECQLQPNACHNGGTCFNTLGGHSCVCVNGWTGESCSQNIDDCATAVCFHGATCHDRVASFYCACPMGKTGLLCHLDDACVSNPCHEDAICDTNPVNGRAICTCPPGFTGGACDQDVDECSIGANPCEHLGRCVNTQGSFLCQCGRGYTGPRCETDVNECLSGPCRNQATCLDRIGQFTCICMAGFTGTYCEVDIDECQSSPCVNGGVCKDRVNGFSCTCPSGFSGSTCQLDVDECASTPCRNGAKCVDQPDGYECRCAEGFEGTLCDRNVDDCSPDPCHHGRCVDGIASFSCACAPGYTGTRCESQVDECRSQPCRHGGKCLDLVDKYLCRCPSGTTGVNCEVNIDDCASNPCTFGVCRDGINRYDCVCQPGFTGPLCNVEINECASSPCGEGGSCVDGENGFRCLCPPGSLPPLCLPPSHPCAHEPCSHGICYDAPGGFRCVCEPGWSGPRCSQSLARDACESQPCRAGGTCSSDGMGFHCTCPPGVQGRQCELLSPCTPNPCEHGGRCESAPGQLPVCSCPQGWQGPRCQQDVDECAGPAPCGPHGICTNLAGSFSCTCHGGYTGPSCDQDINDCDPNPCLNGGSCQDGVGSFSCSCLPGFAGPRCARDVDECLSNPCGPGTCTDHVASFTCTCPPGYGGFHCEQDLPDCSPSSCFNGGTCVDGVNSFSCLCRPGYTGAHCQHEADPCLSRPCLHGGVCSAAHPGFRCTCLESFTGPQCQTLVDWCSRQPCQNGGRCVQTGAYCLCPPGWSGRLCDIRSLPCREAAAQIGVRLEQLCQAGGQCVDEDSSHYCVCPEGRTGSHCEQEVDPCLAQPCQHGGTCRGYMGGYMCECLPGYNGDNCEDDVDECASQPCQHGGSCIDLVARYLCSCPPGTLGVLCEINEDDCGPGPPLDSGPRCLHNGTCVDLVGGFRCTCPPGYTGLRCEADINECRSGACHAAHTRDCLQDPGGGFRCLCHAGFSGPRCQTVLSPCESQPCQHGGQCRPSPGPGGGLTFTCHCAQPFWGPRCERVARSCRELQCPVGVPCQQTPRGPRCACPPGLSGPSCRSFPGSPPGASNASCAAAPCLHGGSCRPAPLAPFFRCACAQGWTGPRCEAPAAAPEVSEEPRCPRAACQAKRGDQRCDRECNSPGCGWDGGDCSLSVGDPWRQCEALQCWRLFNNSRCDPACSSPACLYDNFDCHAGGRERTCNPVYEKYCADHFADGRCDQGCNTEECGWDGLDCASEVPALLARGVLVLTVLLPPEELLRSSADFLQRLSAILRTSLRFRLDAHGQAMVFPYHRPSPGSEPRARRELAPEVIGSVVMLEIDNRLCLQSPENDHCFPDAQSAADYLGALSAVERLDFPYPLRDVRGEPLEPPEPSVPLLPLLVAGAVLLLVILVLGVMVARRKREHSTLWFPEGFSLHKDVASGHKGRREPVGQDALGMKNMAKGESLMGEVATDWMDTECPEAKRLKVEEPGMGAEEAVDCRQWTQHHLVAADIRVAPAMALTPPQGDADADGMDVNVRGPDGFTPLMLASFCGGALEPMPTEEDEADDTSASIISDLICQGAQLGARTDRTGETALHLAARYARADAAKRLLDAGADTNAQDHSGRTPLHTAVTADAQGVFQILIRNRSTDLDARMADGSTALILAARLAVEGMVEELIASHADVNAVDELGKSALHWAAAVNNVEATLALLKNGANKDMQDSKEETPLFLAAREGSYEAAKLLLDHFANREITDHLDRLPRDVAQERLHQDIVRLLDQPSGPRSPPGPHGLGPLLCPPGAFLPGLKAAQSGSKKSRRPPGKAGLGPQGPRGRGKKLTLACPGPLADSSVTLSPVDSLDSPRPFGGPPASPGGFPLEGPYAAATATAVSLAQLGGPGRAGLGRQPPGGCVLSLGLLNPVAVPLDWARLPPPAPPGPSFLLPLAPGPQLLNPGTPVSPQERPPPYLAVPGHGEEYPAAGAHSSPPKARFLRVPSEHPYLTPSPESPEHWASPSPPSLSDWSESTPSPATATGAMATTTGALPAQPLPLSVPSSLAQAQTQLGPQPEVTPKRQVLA

In test [1] the test system is MDA-MB-468 (breast cancer). Description: In vitro cytotoxicity (MTS), MDA-MB-468. It is filed as cell-based, human. The following applies: Table 14; LP = lacked potency. The procedure:
The effects of anti-Notch3 ADCs were assessed on 1) cell lines endogenously expressing Notch3 protein: HCC2429 (lung cancer), OVCAR3 (ovarian cancer) and MDA-MB-468 (breast cancer), 2) cell lines engineered to over-express full length human Notch3 protein: MDA-MB-468/hNotch3 and U2OS/hNotch3, and 3) a negative control cell line (SW900) using an MTS cellular viability indicator (Promega, Madison, Wis.). These cell lines were cultured with increasing concentrations of anti-Notch3 ADCs comprising rat-human chimeric anti-Notch3 antibodies, ch28 and ch75, and humanized anti-Notch3 antibodies, hu28 and hu75, conjugated to various linker-payload combinations of the present invention. As a specificity control for the anti-Notch3-ADCs, non-targeted control-ADCs (huNeg8.8-ADCs or ch2H6-ADCs) were also tested on the same cell lines. After four days, viability of each culture was assessed. IC50 values were calculated by logistic non-linear regression, model #203 with XL fit v4.2 (IDBS, Guildford, Surry, UK) and presented as ng Ab/mL. The drug antibody ratio (DAR) is also provided.

Another test addresses T1, HCC2429 (Homo sapiens, UniProt Q9UM47).
T1 construct: endogenous Notch3 expressing cell lines, HCC2429 and MDA-MB-468; endogenous in cells; host or cells: HCC2429
Description: Cytotoxicity (MTS) after control or Notch3 siRNA, HCC2429. In kind it is cell-based. The conditions noted are these: 96 hours, LP = lacked potency. The method, then: (§1) Notch3 knockdown with siRNAs was used to confirm that the in vitro cytotoxicity of anti-Notch3 ADCs was dependent on the expression of the Notch3 protein. siRNA transfections were generated using ON-TARGET plus SMART pool human Notch3 (L-011093-00), ON-TARGET plus Control Non-Targeting pool (D-001810-10) (Thermo Scientific Dharmacon) and Lipofectamine RNAiMAX Reagent (Invitrogen). Two to 2.5×10^6 cells of HCC2429, OVCAR3 and MDA-MB-468/hNotch3 cells were plated in 10 cm dishes in growth medium without antibiotics the day before transfection. The next day fresh medium without antibiotics was added. The siRNAs and the Lipofectamine RNAiMAX were diluted in OPTI-MEM media and used as per the manufacturer's specifications. Each of the cell lines was transfected with control and Notch3 siRNAs. The cells were incubated with the transfection mixture for 24 hours in a humidified, 37° C., 5% CO2 incubator. After 24 hours, cells were trypsinized and plated for assessment using MTS cellular viability indicator (Promega, Madison, Wis.).
Depending on the cell line, cells were then seeded at a density of 2,500 to 5,000 cells per well 24 hours before treatment. Cells were treated with 3-fold serially diluted humanized anti-Notch3 ADCs in triplicates at 10 concentrations (range 0-30 μg Ab/ml). […] For experiments with 2 individual repeats, average IC50 values were calculated along with standard error of the mean (S.E.M.). Western blot analysis on extracts prepared from control and Notch3 siRNA-treated cells was performed to confirm that Notch3 knockdown occurred for up to 144 hours (data not shown). Cell lines that expressed Notch3 (herein termed control siRNA) or had reduced Notch3 expression after siRNA knockdown (herein termed Notch3 siRNA) were cultured with increasing concentrations of humanized anti Notch3 ADCs. […] After four days, viability of each culture was assessed. IC50 values were calculated by logistic non-linear regression, model #203 with XL fit v4.2 (IDBS, Guildford, Surry, UK) and presented as ng Ab/mL. […]

The target of another test is T2, OVCAR3 (Homo sapiens, UniProt Q9UM47).
T2 construct: Notch3 endogenously expressing cells MDA-MB-468, HCC2429 and OVCAR3; endogenous in cells; host or cells: OVCAR3
Description: Cytotoxicity (MTS) after control or Notch3 siRNA, OVCAR3. In kind it is cell-based. The conditions noted are these: 96 hours; for IC50 (ng Ab/mL) ± S.E.M., OVCAR3 Notch3 siRNA: Notch3 siRNA knockdown. The procedure: as §1
Depending on the cell line, cells were then seeded at a density of 2,500 to 5,000 cells per well 24 hours before treatment. Cells were treated with 3-fold serially diluted humanized anti-Notch3 ADCs in triplicates at 10 concentrations (range 0-30 μg Ab/ml). […] For experiments with 2 individual repeats, average IC50 values were calculated along with standard error of the mean (S.E.M.). Western blot analysis on extracts prepared from control and Notch3 siRNA-treated cells was performed to confirm that Notch3 knockdown occurred for up to 144 hours (data not shown). Cell lines that expressed Notch3 (herein termed control siRNA) or had reduced Notch3 expression after siRNA knockdown (herein termed Notch3 siRNA) were cultured with increasing concentrations of humanized anti Notch3 ADCs. As a specificity control for the anti-Notch3 ADCs, non-targeted control-ADCs (huNeg8.8-ADCs) were also tested on the same cell lines. After four days, viability of each culture was assessed. IC50 values were calculated by logistic non-linear regression, model #203 with XL fit v4.2 (IDBS, Guildford, Surry, UK) and presented as ng Ab/mL. The drug antibody ratio (DAR) is also provided.

B1: hu75-vc0101: hu75 conjugated to vc0101 linker-payload (conjugate)
heavy: EVQLVESGGGLVQPGGSLRLSCAASGYAFTDYWMTWVRQAPGKGLEWVAEISPNSGGTNFNEKFKGRFTISVDNAKNSLYLQMNSLRAEDTAVYYCARGEIRYNWFAYWGQGTLVTVSSASTKGPSVFPLAPSSKSTSGGTAALGCLVKDYFPEPVTVSWNSGALTSGVHTFPAVLQSSGLYSLSSVVTVPSSSLGTQTYICNVNHKPSNTKVDKKV[letters of human IgG1 Fc omitted]
light: DIQMTQSPSSLSASVGDRVTITCKASQNVGNNIAWYQQKPGKAPKLLIYYASNRYTGVPSRFSGSGYGTDFTLTISSLQPEDFATYYCQRLYNSPFTFGGGTKVEIKRTVAAPSVFIFPPSDEQLKSGTASVVCLLNNFYPREAKVQWKVDNALQSGNSQESVTEQDSKDSTYSLSSTLTLSKADYEKHKVYACEVTHQGLSSPVTKSFNRGEC
Turning to B1, the tumor volume in the test on HCC2429 lung xenografts (Day 1, 0.3 mg/kg iv Q4dx4) is given as 524 mm^3; with HCC2429 lung xenografts (Day 1, 1 mg/kg iv Q4dx4) it was 548 mm^3; with HCC2429 lung xenografts (Day 1, 3 mg/kg iv Q4dx4) it was 498 mm^3; in the test with HCC2429 lung xenografts (Day 3, 0.3 mg/kg iv Q4dx4) it was 713 mm^3; in the test with HCC2429 lung xenografts (Day 3, 1 mg/kg iv Q4dx4), 753 mm^3; in the test with HCC2429 lung xenografts (Day 3, 3 mg/kg iv Q4dx4), 498 mm^3. Further, the tumor volume in the test with HCC2429 lung xenografts (Day 6, 0.3 mg/kg iv Q4dx4) stood at 1078 mm^3; with HCC2429 lung xenografts (Day 6, 1 mg/kg iv Q4dx4) it was 1096 mm^3; in the test on HCC2429 lung xenografts (Day 6, 3 mg/kg iv Q4dx4) it was 469 mm^3; with HCC2429 lung xenografts (Day 8, 0.3 mg/kg iv Q4dx4) it was 1499 mm^3; in the test with HCC2429 lung xenografts (Day 8, 1 mg/kg iv Q4dx4), 1428 mm^3; with HCC2429 lung xenografts (Day 8, 3 mg/kg iv Q4dx4), 407 mm^3. In addition, the tumor volume in the test with HCC2429 lung xenografts (Day 10, 0.3 mg/kg iv Q4dx4) came out at 1830 mm^3; in the test with HCC2429 lung xenografts (Day 10, 1 mg/kg iv Q4dx4) it was 1611 mm^3; in the test on HCC2429 lung xenografts (Day 10, 3 mg/kg iv Q4dx4), 370 mm^3; in the test on HCC2429 lung xenografts (Day 13, 0.3 mg/kg iv Q4dx4), 2408 mm^3; in the test on HCC2429 lung xenografts (Day 13, 1 mg/kg iv Q4dx4), 1803 mm^3; in the test with HCC2429 lung xenografts (Day 13, 3 mg/kg iv Q4dx4) it was 273 mm^3. Moreover, the tumor volume in the test with HCC2429 lung xenografts (Day 15, 1 mg/kg iv Q4dx4) is listed as 1871 mm^3; in the test with HCC2429 lung xenografts (Day 15, 3 mg/kg iv Q4dx4), 298 mm^3; with HCC2429 lung xenografts (Day 17, 1 mg/kg iv Q4dx4), 1948 mm^3; in the test on HCC2429 lung xenografts (Day 17, 3 mg/kg iv Q4dx4), 250 mm^3; in the test with HCC2429 lung xenografts (Day 20, 3 mg/kg iv Q4dx4), 177 mm^3; with HCC2429 lung xenografts (Day 23, 3 mg/kg iv Q4dx4) it was 160 mm^3. Also, the tumor volume with HCC2429 lung xenografts (Day 27, 3 mg/kg iv Q4dx4) worked out at 174 mm^3; in the test with HCC2429 lung xenografts (Day 30, 3 mg/kg iv Q4dx4) it was 196 mm^3; in the test with HCC2429 lung xenografts (Day 34, 3 mg/kg iv Q4dx4), 295 mm^3; in the test on HCC2429 lung xenografts (Day 37, 3 mg/kg iv Q4dx4), 433 mm^3; in the test with HCC2429 lung xenografts (Day 41, 3 mg/kg iv Q4dx4), 606 mm^3; in the test with HCC2429 lung xenografts (Day 45, 3 mg/kg iv Q4dx4), 836 mm^3. In addition, the tumor volume in the test on HCC2429 lung xenografts (Day 49, 3 mg/kg iv Q4dx4) is 732 mm^3; with HCC2429 lung xenografts (Day -1, 0.3 mg/kg iv Q4dx4), 247 mm^3; in the test on HCC2429 lung xenografts (Day -1, 1 mg/kg iv Q4dx4), 246 mm^3; in the test with HCC2429 lung xenografts (Day -1, 3 mg/kg iv Q4dx4), 245 mm^3. The “IC50 (ng Ab/mL), MDA-MB-468” value in test [1] is on record as 7001 ng Ab/mL. Further, the “IC50 (ng Ab/mL) ± S.E.M., HCC2429 Control siRNA” value with HCC2429 was 956 ± 259 ng Ab/mL. Also, the “IC50 (ng Ab/mL) ± S.E.M., HCC2429 Notch3 siRNA” value in the test with HCC2429 (Notch3 siRNA knockdown) worked out at 8972 ± 891 ng Ab/mL. Further, the “IC50 (ng Ab/mL) ± S.E.M., OVCAR3 Control siRNA” value with OVCAR3 is recorded as 1056 ± 158 ng Ab/mL. Besides, in the test with OVCAR3, the “IC50 (ng Ab/mL) ± S.E.M., OVCAR3 Notch3 siRNA” value is 2408 ± 27.5 ng Ab/mL.

B2: hu75-vc6780 (conjugate)
heavy: B1 heavy
light: B1 light
For B2, the “IC50 (ng Ab/mL) ± S.E.M., HCC2429 Control siRNA” value with HCC2429 was determined as 236 ± 30.5 ng Ab/mL. Also, in the test with OVCAR3, the “IC50 (ng Ab/mL) ± S.E.M., OVCAR3 Control siRNA” value was found to be 690 ± 137 ng Ab/mL and the “IC50 (ng Ab/mL) ± S.E.M., OVCAR3 Notch3 siRNA” value was found to be 7300 ± 147 ng Ab/mL.

For the origin of these results see patent publication US9433687B2, “Anti-Notch3 antibodies and antibody-drug conjugates” (Pfizer Inc., priority 2012, dated 2016).
